Test results from patent US20240325375A1, “Effect of YEL002 on Psychological and Psychiatric Factors in Health and Disease” (RadMit, Inc., priority 2023, published 2024).

Test system: cells
Assay: Resistance of cells to exposure to a variety of agents
Conditions: UV, chemical carcinogens, chemical warfare agents, radioactive iodine and cigarette smoke

`COc1ccc2cc(-c3nc4ccc(C)cn4c3NCc3ccco3)c(=O)[nH]c2c1` [YEL002] was tested, and the “resistance of cells to exposure to agents” value was “more resistant”.
